The structures appear in SMILES notation.

By UniProt entry, the sequences of proteins in these tests, tags left out. Where a name states a change or a piece, a line headed by the entry shows the natural chain unless it says otherwise.
UniProt O00329: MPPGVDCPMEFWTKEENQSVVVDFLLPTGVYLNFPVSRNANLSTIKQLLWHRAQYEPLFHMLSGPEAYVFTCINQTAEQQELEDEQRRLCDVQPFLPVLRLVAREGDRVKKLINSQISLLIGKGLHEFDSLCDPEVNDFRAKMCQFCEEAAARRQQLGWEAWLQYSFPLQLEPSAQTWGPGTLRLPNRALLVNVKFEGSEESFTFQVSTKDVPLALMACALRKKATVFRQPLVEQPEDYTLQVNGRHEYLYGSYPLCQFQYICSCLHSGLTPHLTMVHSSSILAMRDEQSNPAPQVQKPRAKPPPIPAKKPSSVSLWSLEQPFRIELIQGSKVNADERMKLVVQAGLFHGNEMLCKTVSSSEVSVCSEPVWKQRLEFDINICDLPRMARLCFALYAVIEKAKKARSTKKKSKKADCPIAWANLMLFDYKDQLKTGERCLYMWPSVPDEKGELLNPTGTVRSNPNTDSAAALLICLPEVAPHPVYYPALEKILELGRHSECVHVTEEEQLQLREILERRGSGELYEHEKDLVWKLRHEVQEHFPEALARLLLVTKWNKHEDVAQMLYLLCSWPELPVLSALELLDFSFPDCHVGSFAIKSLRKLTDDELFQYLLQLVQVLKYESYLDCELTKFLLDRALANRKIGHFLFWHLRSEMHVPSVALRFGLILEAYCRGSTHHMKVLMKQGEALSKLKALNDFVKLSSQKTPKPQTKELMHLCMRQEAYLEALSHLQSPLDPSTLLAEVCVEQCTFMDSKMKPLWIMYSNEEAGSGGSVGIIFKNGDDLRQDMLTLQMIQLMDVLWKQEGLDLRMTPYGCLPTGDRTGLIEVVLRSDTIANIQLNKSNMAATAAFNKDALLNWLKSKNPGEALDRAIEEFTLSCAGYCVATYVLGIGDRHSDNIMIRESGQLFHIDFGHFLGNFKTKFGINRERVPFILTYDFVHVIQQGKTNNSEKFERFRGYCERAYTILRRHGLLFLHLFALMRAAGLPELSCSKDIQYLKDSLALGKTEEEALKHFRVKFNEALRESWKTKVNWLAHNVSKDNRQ
UniProt P42338: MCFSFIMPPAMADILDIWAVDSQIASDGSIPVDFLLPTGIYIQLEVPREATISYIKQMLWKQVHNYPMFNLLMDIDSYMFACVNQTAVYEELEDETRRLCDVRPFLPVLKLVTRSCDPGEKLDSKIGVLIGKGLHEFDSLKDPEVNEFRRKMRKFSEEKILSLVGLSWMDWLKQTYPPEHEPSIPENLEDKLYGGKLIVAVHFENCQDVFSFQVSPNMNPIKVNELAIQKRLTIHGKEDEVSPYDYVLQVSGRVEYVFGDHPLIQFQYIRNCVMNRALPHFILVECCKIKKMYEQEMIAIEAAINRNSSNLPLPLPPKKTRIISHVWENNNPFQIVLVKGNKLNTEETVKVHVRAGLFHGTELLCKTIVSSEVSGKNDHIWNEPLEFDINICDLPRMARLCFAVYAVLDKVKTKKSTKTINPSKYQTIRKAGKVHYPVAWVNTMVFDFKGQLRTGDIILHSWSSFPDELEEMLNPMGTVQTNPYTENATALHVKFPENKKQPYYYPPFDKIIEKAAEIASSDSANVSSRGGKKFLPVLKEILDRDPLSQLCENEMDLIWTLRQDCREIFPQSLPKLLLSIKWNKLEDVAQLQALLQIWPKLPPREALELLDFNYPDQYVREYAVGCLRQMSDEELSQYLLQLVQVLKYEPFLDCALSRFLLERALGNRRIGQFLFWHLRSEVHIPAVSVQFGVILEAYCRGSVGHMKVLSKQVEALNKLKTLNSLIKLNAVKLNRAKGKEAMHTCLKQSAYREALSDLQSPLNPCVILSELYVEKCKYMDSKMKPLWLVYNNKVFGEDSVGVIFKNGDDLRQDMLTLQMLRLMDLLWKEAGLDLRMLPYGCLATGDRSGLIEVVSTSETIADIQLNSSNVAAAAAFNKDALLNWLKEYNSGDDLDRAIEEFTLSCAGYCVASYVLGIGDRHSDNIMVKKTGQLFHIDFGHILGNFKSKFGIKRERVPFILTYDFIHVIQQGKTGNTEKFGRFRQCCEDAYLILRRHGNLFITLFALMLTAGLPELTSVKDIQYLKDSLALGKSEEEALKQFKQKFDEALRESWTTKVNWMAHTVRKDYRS
UniProt P42336, whole entry: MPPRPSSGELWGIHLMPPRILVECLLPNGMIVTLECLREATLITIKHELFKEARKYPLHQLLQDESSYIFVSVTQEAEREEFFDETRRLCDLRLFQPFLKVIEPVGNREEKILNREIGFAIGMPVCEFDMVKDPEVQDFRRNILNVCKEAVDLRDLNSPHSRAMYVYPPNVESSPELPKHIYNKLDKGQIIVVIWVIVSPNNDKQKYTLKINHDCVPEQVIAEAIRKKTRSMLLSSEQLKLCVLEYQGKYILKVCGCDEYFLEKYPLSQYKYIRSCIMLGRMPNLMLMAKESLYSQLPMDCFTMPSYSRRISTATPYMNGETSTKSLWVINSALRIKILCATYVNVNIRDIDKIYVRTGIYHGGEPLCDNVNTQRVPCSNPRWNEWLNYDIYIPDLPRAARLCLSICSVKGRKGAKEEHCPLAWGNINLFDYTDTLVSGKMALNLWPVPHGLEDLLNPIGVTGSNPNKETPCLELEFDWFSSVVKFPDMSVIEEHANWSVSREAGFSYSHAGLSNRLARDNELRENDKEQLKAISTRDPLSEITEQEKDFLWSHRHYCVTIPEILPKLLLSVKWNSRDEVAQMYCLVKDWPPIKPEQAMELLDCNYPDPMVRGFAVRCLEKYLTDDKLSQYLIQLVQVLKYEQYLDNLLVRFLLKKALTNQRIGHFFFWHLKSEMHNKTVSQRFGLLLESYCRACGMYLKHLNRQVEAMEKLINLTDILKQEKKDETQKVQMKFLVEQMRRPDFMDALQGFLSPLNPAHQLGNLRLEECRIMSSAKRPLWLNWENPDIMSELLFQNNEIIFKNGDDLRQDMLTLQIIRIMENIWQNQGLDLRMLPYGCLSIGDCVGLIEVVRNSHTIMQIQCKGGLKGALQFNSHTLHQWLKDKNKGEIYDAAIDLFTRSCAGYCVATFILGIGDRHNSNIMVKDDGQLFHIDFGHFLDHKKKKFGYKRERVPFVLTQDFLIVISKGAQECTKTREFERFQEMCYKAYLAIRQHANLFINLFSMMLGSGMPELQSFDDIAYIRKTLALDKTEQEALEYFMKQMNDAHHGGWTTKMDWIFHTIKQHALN

Some targets named below: PI3K δ (Homo sapiens (Human), UniProt O00329); PI3K β (Homo sapiens (Human), UniProt P42338); PI3K α (Homo sapiens (Human), UniProt P42336).
Holding throughout (experiment): PI3-Kinase Promega ADP-Glo Max assay
What all share (assay type): biochemical
For orientation: ADP-Glo turns the ADP formed in a reaction into a luminescent signal.

`C[C@H](NC(=O)c1c(N)nn2cccnc12)c1cc2cccc(C#Cc3cn(C)cn3)c2c(=O)n1-c1ccccc1` [Compound 81]: the IC50 at PI3K δ, against PI3K β and against PI3K α was 1 to 5 µM each time.

Turning to `C[C@H](NC(=O)c1c(N)nn2cccnc12)c1cc2cccc(/C=C/c3cnn(C)c3)c2c(=O)n1-c1ccccc1` [Compound 52], the concentration for half-maximal inhibition (IC50) (in general, the concentration needed to halve the response being measured) on PI3K α was in the range of 5 to 10 µM.

`C[C@H](NC(=O)c1c(N)nn2cccnc12)c1cc2cccc(/C=C\c3cnn(C)c3)c2c(=O)n1-c1ccccc1` [Compound 53] showed an IC50 on PI3K α of 5 to 10 µM.

On to `C[C@H](NC(=O)c1c(N)nn2cccnc12)c1cc2cccc(C#Cc3ccc(=O)[nH]c3)c2c(=O)n1-c1ccccc1` [Compound 33], for which the IC50 against PI3K β was in the range of 5 to 10 µM.

Source of the values: patent US9775844B2, “Heterocyclic compounds and uses thereof” (Infinity Pharmaceuticals, Inc., priority 2014, dated 2017).
